# Data: PubChem BioAssay AID603 (National Center for Advancing Translational Sciences (NCATS), 2007)
# “And” between values parts separate entries of the source, which are not always exact repeats. Identical values can stand only once. The entries are a selection whose mix differs from that of the whole data set. The source made the active and inactive calls. The call rests on the fitted dose curve; in most records, active means well fitted curve in the direction sought with a large enough effect; inconclusive means small, poorly fitted or top-dose-only effect; inactive means flat fitted curve, though single readings scatter.
# Tested on: DNA polymerase III holoenzyme (E. coli)
# Assay: qHTS Assay for Inhibitors of DNA Polymerase III Holoenzyme System
# Settings: reconstituted DNA polymerase III holoenzyme replication, biochemical
# Description: NIH Molecular Libraries Screening Centers Network [MLSCN]
# NIH Chemical Genomics Center [NCGC]
# Assay Provider: Charles McHenry, University of Colorado
# E. coli DNA polymerase III holoenzyme complex was assayed for DNA production by fluorescent detection of the double-stranded DNA product with PicoGreen dye. The holoenzyme complex was reconstituted from the following purified protein components: DNA Polymerase III, beta subunit processivity factor, SSB single-stranded DNA binding protein, and Primase. Single-stranded, circular M13Gori was used as a substrate with dNTPs and NTPs also supplied to the substrate reagent. Compounds from the NCGC collection were incubated with the holoenzyme mixture for 15 min at room temperature to allow binding to occur, and then the reaction was started by the addition of substrate. […] Reaction progress was measured in a ViewLux CCD imager in fluorescence intensity mode by using 480 nm excitation and 540 nm emission filter set. […]
# Three uL of holoenzyme mixture were dispensed to 1536-well Greiner black solid bottom plates. […] After room temperature incubation for 35 minutes, 1 uL of PicoGreen solution was added to each well and the plates were read 480 nm excitation and 540 nm emission using ViewLux (Perkin-Elmer) High-throughput CCD imager and fluorescence protocol settings. […]
# Potency means the concentration at half of the fitted maximal effect.
row,SMILES,Potency
1,O=c1c(O)c(-c2cc(O)c(O)c(O)c2)oc2cc(O)cc(O)c12,active: 1.58 µM and active: 251 nM
